According to ChEMBL document CHEMBL1153941, “Synthesis, molecular modeling, and selective inhibitory activity against human monoamine oxidases of 3-carboxamido-7-substituted coumarins” (J Med Chem, 2009):
pIC50: −log10 of the molar value.

Chains of the proteins cited; added tags and fusions are not shown.
UniProt P27338, whole entry: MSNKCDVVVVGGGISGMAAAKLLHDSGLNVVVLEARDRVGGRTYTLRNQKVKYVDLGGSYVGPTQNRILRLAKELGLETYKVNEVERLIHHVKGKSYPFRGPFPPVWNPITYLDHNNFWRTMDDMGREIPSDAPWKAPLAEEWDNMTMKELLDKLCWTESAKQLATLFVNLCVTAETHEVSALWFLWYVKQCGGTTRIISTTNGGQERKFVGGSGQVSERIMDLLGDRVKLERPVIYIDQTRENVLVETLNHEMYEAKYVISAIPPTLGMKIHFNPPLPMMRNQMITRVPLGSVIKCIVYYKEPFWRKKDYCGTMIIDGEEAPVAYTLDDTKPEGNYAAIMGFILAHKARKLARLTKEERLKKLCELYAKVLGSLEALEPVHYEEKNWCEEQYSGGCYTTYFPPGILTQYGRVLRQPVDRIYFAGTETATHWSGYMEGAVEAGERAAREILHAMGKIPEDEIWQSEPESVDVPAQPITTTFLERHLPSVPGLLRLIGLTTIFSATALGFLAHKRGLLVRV

Tests used:
Homo sapiens = species: Homo sapiens; test: Selectivity index, ratio of IC50 for human recombinant MAOA to IC50 for human recombinant MAOB
[1] = biological target: Amine oxidase [flavin-containing] B (Homo sapiens, UniProt P27338); format: cell-based, BTI-TN-5B1-4

COc1ccc(NC(=O)c2cc3ccccc3oc2=O)cc1
Ratio IC50 (Homo sapiens): > 122
pIC50 [1]: 6.09

O=C(Nc1cccc(F)c1)c1cc2ccccc2oc1=O
Ratio IC50 (Homo sapiens): > 400
pIC50 [1]: 6.60

CC(C)c1ccc(NC(=O)c2cc3ccc(OCc4ccccc4)cc3oc2=O)cc1
pIC50 [1]: 5.43

Cc1cccc(Cl)c1NC(=O)c1cc2ccc(OCc3ccccc3)cc2oc1=O
pIC50 [1]: 4.21

CN(C(=O)c1cc2ccccc2oc1=O)c1ccccc1
Ratio IC50 (Homo sapiens): > 11
pIC50 [1]: 5.05

COc1ccc(NC(=O)c2cc3ccc(OCc4ccccc4)c(C)c3oc2=O)cc1OC
pIC50 [1]: 5.30

Cc1ccc(NC(=O)c2cc3ccccc3oc2=O)cc1C
Ratio IC50 (Homo sapiens): 49
pIC50 [1]: 6.42

COc1cc(NC(=O)c2cc3ccc(OCc4ccc(F)cc4)cc3oc2=O)cc(OC)c1
pIC50 [1]: 4.67

Cc1cccc(Cl)c1NC(=O)c1cc2ccccc2oc1=O
Ratio IC50 (Homo sapiens): > 5.2
pIC50 [1]: 4.72

CC(C)c1ccc(NC(=O)c2cc3ccccc3oc2=O)cc1
pIC50 [1]: 6.19

Cc1cccc(NC(=O)c2cc3ccccc3oc2=O)c1
pIC50 [1]: 6.22

O=C(NC1CCCCC1)c1cc2ccccc2oc1=O
Ratio IC50 (Homo sapiens): > 200
pIC50 [1]: 6.30

N#Cc1c(F)c(F)c(NC(=O)c2cc3ccc(OCc4ccc(F)cc4)cc3oc2=O)c(F)c1F
pIC50 [1]: 5.46

O=C(Nc1cccc(C(F)(F)F)c1)c1cc2ccccc2oc1=O
Ratio IC50 (Homo sapiens): > 400
pIC50 [1]: 6.60

Cc1ccc(NC(=O)c2cc3ccccc3oc2=O)cc1
pIC50 [1]: 6.15

CN(C(=O)c1cc2ccc(OCc3ccccc3)cc2oc1=O)c1ccccc1
Ratio IC50 (Homo sapiens): > 42
pIC50 [1]: 5.63

O=C(Nc1c(F)c(F)c(F)c(F)c1F)c1cc2ccccc2oc1=O
Ratio IC50 (Homo sapiens): > 217
pIC50 [1]: 6.34

COc1cc(NC(=O)c2cc3ccccc3oc2=O)cc(OC)c1
Ratio IC50 (Homo sapiens): 15
pIC50 [1]: 5.38

Cc1cccc(NC(=O)c2cc3ccccc3oc2=O)c1C
Ratio IC50 (Homo sapiens): 1.1
pIC50 [1]: 4.74

O=C(NCc1ccccc1)c1cc2ccc(OCc3ccccc3)cc2oc1=O
Ratio IC50 (Homo sapiens): > 101
pIC50 [1]: 6.00

O=C(Nc1ccccc1)c1cc2ccccc2oc1=O
pIC50 [1]: 6.12

COc1ccc(NC(=O)c2cc3ccccc3oc2=O)cc1OC
pIC50 [1]: 6.07

O=C(NNc1ccccc1)c1cc2ccc(OCc3ccccc3)cc2oc1=O
Ratio IC50 (Homo sapiens): 9.2
pIC50 [1]: 5.34

NCCNC(=O)c1cc2ccccc2oc1=O
Ratio IC50 (Homo sapiens): > 13
pIC50 [1]: 5.11

CCc1ccc(NC(=O)c2cc3ccccc3oc2=O)cc1
pIC50 [1]: 6.05

Cc1ccc(NC(=O)c2cc3ccccc3oc2=O)c(C)c1
Ratio IC50 (Homo sapiens): 0.89
pIC50 [1]: 4.86

O=C(Nc1c(F)cccc1F)c1cc2ccccc2oc1=O
pIC50 [1]: 5.03

CC(C)CNC(=O)c1cc2ccccc2oc1=O
Ratio IC50 (Homo sapiens): > 31
pIC50 [1]: 5.49

Cc1cc(C)cc(NC(=O)c2cc3ccccc3oc2=O)c1
Ratio IC50 (Homo sapiens): 25
pIC50 [1]: 6.15

O=C(Nc1c(F)c(F)nc(F)c1F)c1cc2ccccc2oc1=O
Ratio IC50 (Homo sapiens): 20
pIC50 [1]: 6.24

Cc1cccc(C)c1NC(=O)c1cc2ccccc2oc1=O
pIC50 [1]: 5.89

COc1cc(NC(=O)c2cc3ccc(OCc4ccccc4)cc3oc2=O)cc(OC)c1
pIC50 [1]: 5.47

CSc1ccc(NC(=O)c2cc3ccccc3oc2=O)cc1
pIC50 [1]: 5.55

O=C(Nc1ccc(F)cc1)c1cc2ccccc2oc1=O
pIC50 [1]: 7.17

Cc1cccc(Cl)c1NC(=O)c1cc2ccc(OCc3ccc(F)cc3)cc2oc1=O
pIC50 [1]: 4.38

O=C(Nc1ccccc1Cc1ccccc1)c1cc2ccccc2oc1=O
Ratio IC50 (Homo sapiens): > 110
pIC50 [1]: 6.04

O=C(NC1CCCCC1)c1cc2ccc(OCc3ccccc3)cc2oc1=O
Ratio IC50 (Homo sapiens): > 1.5
pIC50 [1]: 4.19

N#Cc1c(F)c(F)c(NC(=O)c2cc3ccc(OCc4ccccc4)cc3oc2=O)c(F)c1F
Ratio IC50 (Homo sapiens): 3.7
pIC50 [1]: 4.78

CS(=O)(=O)c1ccc(NC(=O)c2cc3ccccc3oc2=O)cc1
pIC50 [1]: 8.85

Cc1ccc(C)c(NC(=O)c2cc3ccccc3oc2=O)c1
Ratio IC50 (Homo sapiens): 0.71
pIC50 [1]: 4.65

O=C(O)c1ccc(NC(=O)c2cc3ccccc3oc2=O)cc1
Ratio IC50 (Homo sapiens): 8.7
pIC50 [1]: 5.94

O=C(Nc1ccccc1Cc1ccccc1)c1cc2ccc(OCc3ccccc3)cc2oc1=O
pIC50 [1]: 4.20

N#Cc1c(F)c(F)c(NC(=O)c2cc3ccccc3oc2=O)c(F)c1F
pIC50 [1]: 6.07

CC(C)NC(=O)c1cc2ccccc2oc1=O
Ratio IC50 (Homo sapiens): > 3.9
pIC50 [1]: 4.60

COc1ccc(NC(=O)c2cc3ccc(OCc4ccccc4)cc3oc2=O)cc1OC
Ratio IC50 (Homo sapiens): > 23
pIC50 [1]: 5.36

COc1ccc(NC(=O)c2cc3ccc(OCc4ccc(F)cc4)cc3oc2=O)cc1OC
pIC50 [1]: 5.54

CC(C)CNC(=O)c1cc2ccc(OCc3ccccc3)cc2oc1=O
pIC50 [1]: 5.02

COc1cccc(NC(=O)c2cc3ccccc3oc2=O)c1
Ratio IC50 (Homo sapiens): > 156
pIC50 [1]: 6.19
